The record followed here is article PMC4844575, “The influence of different metal-chelate conjugates of pentixafor on the CXCR4 affinity” (EJNMMI Research, 2016).

The chains behind the UniProt entries cited, without tags or fusion partners.
UniProt P61073, whole entry: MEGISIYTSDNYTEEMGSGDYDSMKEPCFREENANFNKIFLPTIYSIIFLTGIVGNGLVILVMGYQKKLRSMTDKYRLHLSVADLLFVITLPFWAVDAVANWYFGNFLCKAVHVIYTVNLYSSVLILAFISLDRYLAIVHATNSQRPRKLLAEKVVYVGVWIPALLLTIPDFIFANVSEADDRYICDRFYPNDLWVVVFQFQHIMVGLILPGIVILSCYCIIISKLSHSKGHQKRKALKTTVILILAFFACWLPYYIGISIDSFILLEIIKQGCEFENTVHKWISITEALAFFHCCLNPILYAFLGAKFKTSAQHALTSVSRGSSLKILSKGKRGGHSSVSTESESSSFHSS

The target in this assay is T1, CXCR4 (Homo sapiens, UniProt P61073).
T1 construct: endogenous in cells; host or cells: Jurkat T-cell leukemia cells
Nature of the assay: competitive binding assay on Jurkat cells with [125I]FC131 as radioligand. Conditions: Jurkat T-cells, 4 × 10^5 cells per vial, app. 0.1 nM [125I]FC131, 120 min incubation, mean ± SD (n = 3). The method, then: For in vitro experiments, the Jurkat T - cell line was used. […] The cell line was cultured at 37 °C in a humidified atmosphere with 5 % CO2 and passaged two to three times a week, depending on the cell count.
Jurkat cells (4 × 10^5 cells per vial) were incubated with the respective peptide of interest at the final concentrations ranging from 10^−11 to 10^−5 M and app. […] The total sample volume was 250 μL. After an incubation time of 120 min, the vials were centrifuged at 1300 rpm (Heraeus Megafuge, Thermo) for 3 min and the supernatant was removed. The cells were washed twice with 200 μL ice-cold Hank’s balanced salt solution (HBSS). After each washing step, the samples were centrifuged and the supernatant removed. Finally, the amount of displaced and bound radioligand in the combined fractions of the supernatant and the cell pellet was quantified. The half maximal inhibitory concentration (IC50) values were determined using GraphPad Prism software.

As usually defined, the IC50 is the point on the concentration scale where inhibition reaches its midpoint. Read a low IC50 as higher potency. Turning to `N=C(N)NCCC[C@@H]1NC(=O)[C@H](CCCNC(=N)N)NC(=O)[C@@H](Cc2ccc(O)cc2)NC(=O)CNC(=O)[C@H](Cc2ccc3ccccc3c2)NC1=O` [FC131, cyclo(-D-Tyr-L-Arg-L-Arg-L-Nal-Gly-), reference compound], the IC50 came to 9.9 nM.
